Results on one compound are retold here after patent US9284284B2, “Oxazine derivatives and their use in the treatment of disease” (NOVARTIS AG, priority 2011, dated 2016).

Protein sequences, listed by entry. Tags and fused reporters are not part of them. Residues count along the entry.
UniProt P56817, 46-457: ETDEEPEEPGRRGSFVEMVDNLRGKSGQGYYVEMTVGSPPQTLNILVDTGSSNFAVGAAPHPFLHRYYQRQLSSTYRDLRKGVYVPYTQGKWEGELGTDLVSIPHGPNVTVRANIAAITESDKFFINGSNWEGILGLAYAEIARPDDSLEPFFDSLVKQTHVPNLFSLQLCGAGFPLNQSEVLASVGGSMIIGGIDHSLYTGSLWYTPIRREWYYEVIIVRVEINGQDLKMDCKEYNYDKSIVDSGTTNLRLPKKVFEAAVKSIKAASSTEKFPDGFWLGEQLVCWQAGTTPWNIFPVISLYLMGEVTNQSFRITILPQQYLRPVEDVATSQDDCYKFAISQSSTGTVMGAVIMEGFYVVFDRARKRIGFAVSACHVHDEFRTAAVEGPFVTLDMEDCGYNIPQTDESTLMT
UniProt Q9Y5Z0, 63-473: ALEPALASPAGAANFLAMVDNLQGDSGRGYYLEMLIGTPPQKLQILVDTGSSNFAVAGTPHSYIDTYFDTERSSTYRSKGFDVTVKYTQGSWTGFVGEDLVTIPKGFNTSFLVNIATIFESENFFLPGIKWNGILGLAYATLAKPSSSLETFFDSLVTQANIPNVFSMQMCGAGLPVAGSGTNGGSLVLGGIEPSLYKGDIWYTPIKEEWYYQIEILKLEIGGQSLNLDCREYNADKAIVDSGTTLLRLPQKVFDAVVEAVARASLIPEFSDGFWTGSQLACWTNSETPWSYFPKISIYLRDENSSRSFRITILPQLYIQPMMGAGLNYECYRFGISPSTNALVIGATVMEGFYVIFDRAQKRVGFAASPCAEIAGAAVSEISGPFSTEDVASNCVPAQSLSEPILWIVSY

Assay [1] deals with amyloid peptide 1-40 release. As to the kind of experiment: Test 4: Inhibition of Cellular Release of Amyloid Peptide 1-40. The format is cell-based, Chinese hamster. The conditions noted are these: Cricetulus griseus, 24 h, read-out: Amyloid-β1-40 release IC50. The method, then:
Chinese hamster ovary cells are transfected with the human gene for amyloid precursor protein. The cells are plated at a density of 8000 cells/well into 96-well microtiter plates and cultivated for 24 hours in DMEM cell culture medium containing 10% FCS. The test compound is added to the cells at various concentrations, and the cells are cultivated for 24 hours in the presence of the test compound. […] The potency of the compound is calculated from the percentage of inhibition of amyloid peptide release as a function of the test compound concentration.

The next assay deals with human BACE-1 (Homo sapiens (Human), UniProt P56817). As to the kind of experiment: Test 1: Inhibition of Human BACE-1. The format is biochemical. The method, then:
Test 1: Inhibition of Human BACE-1
(§1) Recombinant BACE-1 (extracellular domain, expressed in baculovirus and purified using standard methods) at 0.1 to 1 nM concentrations is incubated with the test compound at various concentrations for 1 hour at room temperature in 100 mM acetate buffer, pH 4.5, containing 0.1% CHAPS. Activity was measured using a final concentration of 3 μM of the fluorescence-quenched substrate Q-C(HSO3)-Ile-Asp-Leu-Ala-Val-Leu-Asp-HN—CH2—CH2-Mca, where Q=2-nitro-5-amino benzoic acid and Mca=7-methoxy-4-coumarinyl acetic acid. Catalytic turnover was monitored in a Spectramax Gemini fluorescence plate reader (Molecular Devices) in black 96-well microplates using excitation/emission wavelength of 325 nm and 400 nm, respectively. Fluorescence increase was followed for 15 min, in 1 minute's intervals. The fluorescence/time slopes were calculated from duplicate wells and from wells without inhibitor and the IC50 values were calculated using a logistic 4-parameter model.

In another assay the target is human BACE-2 (Homo sapiens (Human), UniProt Q9Y5Z0). As to the kind of experiment: Test 2: Inhibition of Human BACE-2. The assay is classed as biochemical. The method, then:
Test 2: Inhibition of Human BACE-2
as §1, with “BACE-2” for “BACE-1”

Turning to `COc1ccccc1Nc1ccc(F)c([C@]2(C)CO[C@@](C)(C(F)(F)F)C(N)=N2)n1` [Example 29, (2R,5R)-5-[3-Fluoro-6-(2-methoxy-phenylamino)-pyridin-2-yl]-2,5-dimethyl-2-trifluoromethyl-5,6-dihydro-2H-[1,4]oxazin-3-ylamine], the 50% inhibitory concentration (IC50) (as a rule, the concentration that gives 50% inhibition) in assay [1] is 2.3 µM; at human BACE-1, over 10 µM; at human BACE-2, 4.2 µM.
